For this series the following is noted: 20 μg/kg/h continuous infusion through epicutaneo-cava catheter, after twenty days; perineum and thighs.

For the substance “triglycyl-lysine vasopressin [terlipressin]”, the Skin adverse effect result is reported as “severe necrotic skin lesions”.

For the origin of these results see paper PMC8308678, “Treatment with Micafungin in a Preterm Neonate with an Invasive Candida parapsilosis Infection after a Severe Terlipressin-Induced Skin Necrosis” (Pathogens, 2021).
